{"source": "PubChem BioAssay AID648", "about": "(SRMLSC, 2007)", "note": "Only a part is listed here, and it is no random draw. Activity calls are given as the source filed them.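 The calls were made as follows: active = viability at or below 30%; inactive = viability above 30%.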"}
{"experiment": "endothelial cell growth inhibition – HUVEC, 384-well, primary screen (AID 648);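 also: 100% = median luminescence of DMSO-only cell control wells on each plate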", "details": "HUVEC proliferation, CellTiter-Glo luminescence, 72 h; hits give low values; screened at 10 µM (by protocol)"}
{"smiles": "CP(=S)(Nn1cnnc1)Oc1ccccc1", "note": "(configuration not stated)", "viability": "inactive: 89.7%"}
{"smiles": "CP(=O)(Nc1ccccn1)Oc1ccc(Cl)cc1", "note": "(configuration not stated)", "viability": "inactive: 93.9%"}
{"smiles": "CCOP(C)(=S)SCC(=O)NC(C)C(=O)O", "note": "(configuration not stated)", "viability": "inactive: 102%"}
{"smiles": "CP(=O)(NC(=O)Nc1ccccc1)Oc1ccccc1", "note": "(configuration not stated)", "viability": "inactive: 98.2%"}
{"smiles": "COc1ccc(OP(C)(=O)Nc2cccc(F)c2)cc1", "note": "(configuration not stated)", "viability": "inactive: 102%"}
{"smiles": "COc1ccccc1OP(C)(=O)Nc1ccc(C)cc1", "note": "(configuration not stated)", "viability": "inactive: 102%"}
{"smiles": "Cc1ccc(NP(C)(=O)Oc2ccccc2)c(C)c1", "note": "(configuration not stated)", "viability": "inactive: 97%"}
{"smiles": "Cc1cc(C)cc(OP(C)(=O)Nc2ccccn2)c1", "note": "(configuration not stated)", "viability": "inactive: 95.1%"}
{"smiles": "Cc1ccc(C)c(NP(C)(=O)Oc2ccccc2)c1", "note": "(configuration not stated)", "viability": "inactive: 102%"}
{"smiles": "Cc1cc(C)cc(OP(C)(=O)Nc2ccc(C)cc2C)c1", "note": "(configuration not stated)", "viability": "inactive: 89.3%"}
{"smiles": "Cc1nc2ccc3ccccc3c2s1.O=[N+]([O-])c1cc([N+](=O)[O-])c(O)c([N+](=O)[O-])c1", "viability": "inactive: 92.6%"}
{"smiles": "COc1ccccc1OP(C)(=O)Nc1c(C)cccc1C", "note": "(configuration not stated)", "viability": "inactive: 106%"}
{"smiles": "CN(C)CCOC(=O)C(O)(c1ccccc1)C1CCCCC1", "note": "(configuration not stated)", "viability": "inactive: 98.1%"}
{"smiles": "Cc1ccccc1NP(C)(=O)Nc1ccccc1C", "viability": "inactive: 93.2%"}
{"smiles": "CP(=O)(Nc1ccc2c(c1)OCCO2)Oc1ccccc1", "note": "(configuration not stated)", "viability": "inactive: 94.5%"}
{"smiles": "CCOP(C)(=S)SCC(=O)NC(C)(CC)C(=O)O", "note": "(configuration not stated)", "viability": "inactive: 90.1%"}
{"smiles": "CP(=O)(Nc1ccccc1F)Oc1ccccc1", "note": "(configuration not stated)", "viability": "inactive: 101%"}
{"smiles": "CP(=O)(Nc1ccccc1)Oc1ccc(F)cc1", "note": "(configuration not stated)", "viability": "inactive: 95.7%"}
{"smiles": "CCN(CC)CCCOC(=O)C(O)(c1ccccc1)C1CCCCC1", "note": "(configuration not stated)", "viability": "inactive: 86%"}
{"smiles": "Cc1nc2ccc3ccccc3c2o1.O=[N+]([O-])c1cc([N+](=O)[O-])c(O)c([N+](=O)[O-])c1", "viability": "inactive: 98.2%"}
{"smiles": "COc1ccccc1OP(C)(=O)Nc1ccc(C)c(C)c1", "note": "(configuration not stated)", "viability": "inactive: 57.8%"}
{"smiles": "CCc1ccc(OP(C)(=O)O)cc1", "viability": "inactive: 101%"}
{"smiles": "CP(=O)(Nc1ccccn1)Oc1ccccc1", "note": "(configuration not stated)", "viability": "inactive: 91%"}
{"smiles": "COc1ccccc1OP(C)(=O)Nc1ccc(C)cc1C", "note": "(configuration not stated)", "viability": "inactive: 94.2%"}
{"smiles": "Cc1c(NP(C)(=O)Oc2ccc(C(C)C)cc2)c(=O)n(-c2ccccc2)n1C", "note": "(configuration not stated)", "viability": "inactive: 100%"}
{"smiles": "CN(C)CCOC(=O)C(O)(c1ccccc1)C1CCCC1", "note": "(configuration not stated)", "viability": "inactive: 103%"}
{"smiles": "COc1ccc(OP(C)(=O)Nc2ccccn2)cc1", "note": "(configuration not stated)", "viability": "inactive: 101%"}
{"smiles": "CP(=O)(Nc1ccc(Cl)cc1)Oc1ccc(F)cc1", "note": "(configuration not stated)", "viability": "inactive: 96.7%"}
{"smiles": "CC(C)(C)c1ccc(OP(C)(=O)O)cc1", "viability": "inactive: 108%"}
{"smiles": "CP(=O)(Oc1ccccc1)N1CCOC1=O", "note": "(configuration not stated)", "viability": "inactive: 109%"}
{"smiles": "COc1ccccc1OP(C)(=O)Nc1c(C)n(C)n(-c2ccccc2)c1=O", "note": "(configuration not stated)", "viability": "inactive: 98.6%"}
{"smiles": "CP(=O)(OC12CC3CC(CC(C3)C1)C2)OC12CC3CC(CC(C3)C1)C2", "viability": "inactive: 89.2%"}
